## AlphaSeq binding of Ab-14 light chain variants to a spike HR2 peptide

Reference: Li et al. 2023, doi:10.1038/s41467-023-39022-2. File: FLAb, binding data.

All variants were tested on one target, the spike HR2 peptide PDVDLGDISGINAS (SARS-CoV-2).

Ab-14 is the parent antibody, in scFv form: VH, then a (GGGGS)3 linker, then VL. The heavy chain is unchanged in all variants.
VH: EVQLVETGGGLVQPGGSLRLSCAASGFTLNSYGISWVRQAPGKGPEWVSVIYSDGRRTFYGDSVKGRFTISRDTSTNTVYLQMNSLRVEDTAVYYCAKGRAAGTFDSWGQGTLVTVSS
VL: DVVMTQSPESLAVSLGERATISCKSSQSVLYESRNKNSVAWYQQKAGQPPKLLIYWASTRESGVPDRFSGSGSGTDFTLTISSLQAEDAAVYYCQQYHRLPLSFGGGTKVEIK

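The starting antibody came from a phage panning campaign against this peptide. The variants were designed computationally from a first round of random CDR variants and then made and measured. Several design methods are mixed in this list. The scFvs were displayed on barcoded MATa yeast, the peptide on MATalpha yeast. Mating (16 h, 30 °C) was followed by selection of diploids and sequencing of their barcodes. The ratio of observed to expected reads was calibrated, replicate by replicate, on BCL2-family standards whose Kd was known from biolayer interferometry. There are six technical replicates.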

Sequences are complete VL domains. This list holds designs with at most six substitutions. Affinities are written as log10 Kd with Kd in nM; a lower number is a better binder. Replicates are averaged; those with no signal do not enter the mean. Where no diploid with the target was found in any replicate, the entry reads "no signal": below detection, most likely a poor binder, though not proof of it.

- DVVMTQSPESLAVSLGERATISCKLQQSVLYESRNKNSVAWYQQKAGQPPKLLIYGASTRLSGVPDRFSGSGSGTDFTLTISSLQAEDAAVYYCQQYHRLPLSFGGGTKVEIK: 0.41 (6 of 6 replicates)
- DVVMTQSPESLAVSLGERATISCKSLQSVLYESNNKNSVAWYQQKAGQPPKLLIYHASTREDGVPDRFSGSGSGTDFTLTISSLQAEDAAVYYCQQYHRLPLSFGGGTKVEIK: 0.77 (6 of 6 replicates)
- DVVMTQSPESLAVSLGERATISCKSSQSVDYESRNTNSVAWYQQKAGQPPKLLIYEASTRESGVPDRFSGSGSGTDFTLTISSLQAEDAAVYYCQQYHRLPLSFGGGTKVEIK: 1.44 (6 of 6 replicates)
- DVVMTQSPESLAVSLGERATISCSISQSVLQESRNKNSVAWYQQKAGQPPKLLIYWASTRESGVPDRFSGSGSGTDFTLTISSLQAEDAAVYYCQQYHRLPLSFGGGTKVEIK: 1.29 (6 of 6 replicates)
- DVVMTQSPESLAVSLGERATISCKFSQSQLYESRNKNSVAWYQQKAGQPPKLLIYDASTRESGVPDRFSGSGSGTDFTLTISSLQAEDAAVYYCQQYHRLPLSFGGGTKVEIK: -0.06 (6 of 6 replicates)
- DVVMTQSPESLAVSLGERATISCKLEQSTLYESRNANSVAWYQQKAGQPPKLLIYNASTRESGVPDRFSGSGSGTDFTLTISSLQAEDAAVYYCQQYKRLPLSFGGGTKVEIK: -0.28 (6 of 6 replicates)
- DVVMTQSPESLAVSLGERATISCKMSKSVLFESRNKNSVAWYQQKAGQPPKLLIYNASTRESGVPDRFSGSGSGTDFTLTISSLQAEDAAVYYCQQYHRLPLSFGGGTKVEIK: -0.29 (6 of 6 replicates)
- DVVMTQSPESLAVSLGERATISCKLSQLWLYESRNKNSVAWYQQKAGQPPKLLIYHASTRESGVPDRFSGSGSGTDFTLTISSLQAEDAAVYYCQQYHRLPLSFGGGTKVEIK: 0.42 (6 of 6 replicates)
- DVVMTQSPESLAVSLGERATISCKQSQSVLGESVNKNSVAWYQQKAGQPPKLLIYDASTRESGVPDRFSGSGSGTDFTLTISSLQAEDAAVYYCQQYHRLPLSFGGGTKVEIK: 0.44 (6 of 6 replicates)
- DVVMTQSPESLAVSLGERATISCLISQSVLYESRDKNSVAWYQQKAGQPPKLLIYNASTRLSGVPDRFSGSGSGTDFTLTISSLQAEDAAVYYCQQYHRLPLSFGGGTKVEIK: 0.08 (6 of 6 replicates)
- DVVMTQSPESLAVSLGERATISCKSSGSVLYESRNSNSVAWYQQKAGQPPKLLIYNASTRESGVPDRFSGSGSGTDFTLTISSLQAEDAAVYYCQQYHRLPLSFGGGTKVEIK: -0.02 (6 of 6 replicates)
- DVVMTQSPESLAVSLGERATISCKFSQSVLAESRNKNSVAWYQQKAGQPPKLLIYWASTRESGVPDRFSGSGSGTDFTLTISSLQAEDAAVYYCQQYRRLPLYFGGGTKVEIK: 1.22 (6 of 6 replicates)
- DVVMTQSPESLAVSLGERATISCHLSQSVLYESRNKNSVAWYQQKAGQPPKLLIYNASTREKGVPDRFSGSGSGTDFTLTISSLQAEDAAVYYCQQYHRLPLSFGGGTKVEIK: -0.27 (6 of 6 replicates)
- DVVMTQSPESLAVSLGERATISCKSSGSILYESVNKNSVAWYQQKAGQPPKLLIYHASTRESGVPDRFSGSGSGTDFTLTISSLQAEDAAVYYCQQYHRLPLSFGGGTKVEIK: 0.45 (6 of 6 replicates)
- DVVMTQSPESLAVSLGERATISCKLQQAELQESRNKNSVAWYQQKAGQPPKLLIYSASTRESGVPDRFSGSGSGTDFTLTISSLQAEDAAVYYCQQYHRLPLSFGGGTKVEIK: -0.39 (6 of 6 replicates)
- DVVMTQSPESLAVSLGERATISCKASQSWLYESRNFWSVAWYQQKAGQPPKLLIYGASTRESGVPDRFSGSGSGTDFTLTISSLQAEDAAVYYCQQYHRLPLSFGGGTKVEIK: 0.08 (6 of 6 replicates)
- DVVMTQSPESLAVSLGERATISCKVSQSVLYEDRNKNSVAWYQQKAGQPPKLLIYNASTRLSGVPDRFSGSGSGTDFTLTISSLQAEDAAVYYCQQYHRLPLSFGGGTKVEIK: -0.18 (6 of 6 replicates)
- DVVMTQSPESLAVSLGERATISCKSSQSVPYESRNKNSVAWYQQKAGQPPKLLIYQASTRELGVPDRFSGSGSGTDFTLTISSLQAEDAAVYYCQQYHRLPLSFGGGTKVEIK: 0.15 (6 of 6 replicates)
- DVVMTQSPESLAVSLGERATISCKVSQSVLYEWRNKNSVAWYQQKAGQPPKLLIYDASTREVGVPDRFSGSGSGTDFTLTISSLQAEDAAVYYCQQYHRLPLSFGGGTKVEIK: -0.07 (6 of 6 replicates)
- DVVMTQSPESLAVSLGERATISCKSSQSVLYESRNKNSVAWYQQKAGQPPKLLIYWASTRESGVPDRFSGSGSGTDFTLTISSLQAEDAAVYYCQQYHELPLPFGGGTKVEIK: 1.90 (1 of 6 replicates)
- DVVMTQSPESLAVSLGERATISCKVSQSQLYESRNKNSVAWYQQKAGQPPKLLIYEASTRESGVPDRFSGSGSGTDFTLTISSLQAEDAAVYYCQQYHRLPLSFGGGTKVEIK: 0.29 (6 of 6 replicates)
- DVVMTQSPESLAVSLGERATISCKSSWSVLFESRNKNSVAWYQQKAGQPPKLLIYDASTRSQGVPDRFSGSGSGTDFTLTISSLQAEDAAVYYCQQYHRLPLSFGGGTKVEIK: 0.46 (6 of 6 replicates)
- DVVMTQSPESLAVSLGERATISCKLSQSYLYESRNKNSVAWYQQKAGQPPKLLIYNASTRESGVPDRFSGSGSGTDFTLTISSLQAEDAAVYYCQAYHRLPLSFGGGTKVEIK: 0.05 (6 of 6 replicates)
- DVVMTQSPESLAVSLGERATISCKSSQSVLYESLNKNSVAWYQQKAGQPPKLLIYNASTRMSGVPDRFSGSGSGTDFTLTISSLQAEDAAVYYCQQYHRLPLSFGGGTKVEIK: 0.51 (6 of 6 replicates)
- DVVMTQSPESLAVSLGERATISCKSSQSVLYPSRNKNSVAWYQQKAGQPPKLLIYWASTRESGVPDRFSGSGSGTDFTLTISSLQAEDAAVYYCQQYHRLPLSFGGGTKVEIK: 2.66 (5 of 6 replicates)
- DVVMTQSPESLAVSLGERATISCKSSQSVLYEFRNKNSVAWYQQKAGQPPKLLIYRASTRESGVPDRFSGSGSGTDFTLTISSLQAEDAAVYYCQQVHRLPLSFGGGTKVEIK: no signal (0 of 6 replicates)

The 3 strongest on average among those seen in every replicate, once more:

| VL | mean, log10 nM | seen in |
|---|---|---|
| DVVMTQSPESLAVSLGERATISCKLQQAELQESRNKNSVAWYQQKAGQPPKLLIYSASTRESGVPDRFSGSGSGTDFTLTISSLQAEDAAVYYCQQYHRLPLSFGGGTKVEIK | -0.39 | 6/6 |
| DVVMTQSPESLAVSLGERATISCKMSKSVLFESRNKNSVAWYQQKAGQPPKLLIYNASTRESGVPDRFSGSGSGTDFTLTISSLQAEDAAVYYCQQYHRLPLSFGGGTKVEIK | -0.29 | 6/6 |
| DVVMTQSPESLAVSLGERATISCKLEQSTLYESRNANSVAWYQQKAGQPPKLLIYNASTRESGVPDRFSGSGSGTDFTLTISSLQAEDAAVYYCQQYKRLPLSFGGGTKVEIK | -0.28 | 6/6 |

In the paper, a design with two or fewer of six values counts as a poor binder. Of ten entries with the parent sequence, four were seen in most replicates (averages 0.34 to 2.37), three in one and three in none, so single entries are noisy. The range of this assay differs from that of the first round, and the authors advise against merging the two. Empty control strains, which show no peptide, gave a signal in 4% of pairings with all light chain designs; the median was 2.64 and 95% of these signals were weaker than 1.59. No background was subtracted.